Results reported in PubChem BioAssay AID1020 (Sanford-Burnham Center for Chemical Genomics, 2008).
The list shows a part of the results, in another mix than the full data. Calls of active or inactive are those of the source. Rule as the data show it: active = inhibition above about 50%; inactive = the rest.

Tested on: glucose-6-phosphate dehydrogenase [Leuconostoc mesenteroides]
Experiment: L. mesenteroides G6PDH inhibitors, counter-screen for G6PDH-coupled screening assays, biochemical, Leuconostoc mesenteroides enzyme (AID 1020)
Conditions: Purified L. mesenteroides G6PDH, diaphorase/resazurin coupled fluorescence, 45 min; at 5 µM; stronger effect = higher value

Q: How did the inhibition turn out when CC1CCN(C(=O)Oc2c(Cl)cc(Cl)c3cccnc23)CC1 was run?
A: Its inhibition is inactive: 10.6%.
